Here are results for 2 molecules from paper PMC7450990 (Journal of medicinal chemistry, 2019).

This assay concerns Hh pathway (endogenous Gli1 mRNA levels), ASZ-001 cells. The assay is described as follows: cells. Conditions: Mus musculus, ASZ001, 48 h, read-out: IC50 (Hh pathway inhibition, Gli1 mRNA), ASZ-001 cells, 48 h incubation, Mean ± SEM.

In the case of `C[C@@]1(c2ccc(Cl)cc2Cl)OC[C@@H](COc2ccc(N3CCN(c4ccc(NC(=O)Oc5ccccc5)cc4)CC3)cc2)O1` [Compound 37, phenyl (4-(4-(4-(((2R,4R)-2-(2,4-dichlorophenyl)-2-methyl-1,3-dioxolan-4-yl)methoxy)phenyl)piperazin-1-yl)phenyl)carbamate], the IC50 was over 10 µM. Turning to `C[C@]1(c2ccc(Cl)cc2Cl)OC[C@@H](COc2ccc(N3CCN(c4ccc(NC(=O)Oc5ccccc5)cc4)CC3)cc2)O1` [Compound 38, phenyl (4-(4-(4-(((2S,4R)-2-(2,4-dichlorophenyl)-2-methyl-1,3-dioxolan-4-yl)methoxy)phenyl)piperazin-1-yl)phenyl)carbamate], the IC50 is over 10 µM.
